{
  "sequences": {"note": "Amino acid sequences for entries named in this document (tags omitted).", "UniProt P62937, whole entry": "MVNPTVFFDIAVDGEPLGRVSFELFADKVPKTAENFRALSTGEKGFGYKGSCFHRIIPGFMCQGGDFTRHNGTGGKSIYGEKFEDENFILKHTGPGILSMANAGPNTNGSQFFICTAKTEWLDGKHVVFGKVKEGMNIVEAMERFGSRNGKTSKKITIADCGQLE"},
  "source": "paper PMC5430804",
  "about": "“Structural and biochemical insights of CypA and AIF interaction” (Scientific Reports, 2017)",
  "target": "CypA peptide substrate",
  "test": "not stated; binding of CypA wild type or R55A to a peptide substrate in the presence and absence of AIF(370-394) (10-fold excess) and CsA (Supplementary Fig. S8)",
  "data": [
    {"substance": "His-tagged Cyclophilin A (CypA) (from UniProt P62937 1-165) (enzyme)", "values": [
      {"measurement": "Kd", "result": 57, "unit": "nM"}
    ]}
  ]
}
